Experimental data from PubChem BioAssay (NCATS).
Only a part is listed here, and it is no random draw. Records with an inconclusive call do not appear. For part of these data: Measured potencies and affinities stand elsewhere. Calls of active or inactive are those of the source. Unless noted, the call rests on the fitted dose curve; in most records, active means well fitted curve in the direction sought with a large enough effect; inconclusive means small, poorly fitted or top-dose-only effect, or another doubt; inactive means no such curve, though single readings can be large; an effect the other way counts as inactive or inconclusive.

Protein sequences, listed by entry. Tags and fused reporters are not part of them. Lines headed by an entry give the natural chain unless they say otherwise; changes in a name come on top.
UniProt O94782: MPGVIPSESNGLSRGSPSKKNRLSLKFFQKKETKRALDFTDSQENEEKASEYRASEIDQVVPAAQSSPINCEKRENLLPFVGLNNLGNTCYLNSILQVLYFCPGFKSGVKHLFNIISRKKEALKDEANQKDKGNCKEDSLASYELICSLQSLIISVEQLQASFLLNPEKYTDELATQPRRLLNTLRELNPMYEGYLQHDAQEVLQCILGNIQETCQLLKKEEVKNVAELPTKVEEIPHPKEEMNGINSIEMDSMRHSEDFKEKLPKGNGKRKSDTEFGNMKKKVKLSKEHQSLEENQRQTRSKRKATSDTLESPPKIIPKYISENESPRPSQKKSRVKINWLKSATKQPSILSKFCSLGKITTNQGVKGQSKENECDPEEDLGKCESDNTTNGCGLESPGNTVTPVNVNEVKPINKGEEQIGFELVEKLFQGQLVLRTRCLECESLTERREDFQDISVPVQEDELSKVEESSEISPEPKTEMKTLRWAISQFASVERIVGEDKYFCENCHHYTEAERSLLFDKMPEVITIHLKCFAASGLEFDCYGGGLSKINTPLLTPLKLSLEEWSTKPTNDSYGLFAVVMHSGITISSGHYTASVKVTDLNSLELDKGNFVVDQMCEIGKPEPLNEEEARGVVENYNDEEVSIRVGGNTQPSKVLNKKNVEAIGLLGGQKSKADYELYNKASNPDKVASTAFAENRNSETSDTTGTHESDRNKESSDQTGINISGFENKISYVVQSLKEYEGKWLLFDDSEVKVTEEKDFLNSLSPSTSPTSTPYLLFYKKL
UniProt Q12809: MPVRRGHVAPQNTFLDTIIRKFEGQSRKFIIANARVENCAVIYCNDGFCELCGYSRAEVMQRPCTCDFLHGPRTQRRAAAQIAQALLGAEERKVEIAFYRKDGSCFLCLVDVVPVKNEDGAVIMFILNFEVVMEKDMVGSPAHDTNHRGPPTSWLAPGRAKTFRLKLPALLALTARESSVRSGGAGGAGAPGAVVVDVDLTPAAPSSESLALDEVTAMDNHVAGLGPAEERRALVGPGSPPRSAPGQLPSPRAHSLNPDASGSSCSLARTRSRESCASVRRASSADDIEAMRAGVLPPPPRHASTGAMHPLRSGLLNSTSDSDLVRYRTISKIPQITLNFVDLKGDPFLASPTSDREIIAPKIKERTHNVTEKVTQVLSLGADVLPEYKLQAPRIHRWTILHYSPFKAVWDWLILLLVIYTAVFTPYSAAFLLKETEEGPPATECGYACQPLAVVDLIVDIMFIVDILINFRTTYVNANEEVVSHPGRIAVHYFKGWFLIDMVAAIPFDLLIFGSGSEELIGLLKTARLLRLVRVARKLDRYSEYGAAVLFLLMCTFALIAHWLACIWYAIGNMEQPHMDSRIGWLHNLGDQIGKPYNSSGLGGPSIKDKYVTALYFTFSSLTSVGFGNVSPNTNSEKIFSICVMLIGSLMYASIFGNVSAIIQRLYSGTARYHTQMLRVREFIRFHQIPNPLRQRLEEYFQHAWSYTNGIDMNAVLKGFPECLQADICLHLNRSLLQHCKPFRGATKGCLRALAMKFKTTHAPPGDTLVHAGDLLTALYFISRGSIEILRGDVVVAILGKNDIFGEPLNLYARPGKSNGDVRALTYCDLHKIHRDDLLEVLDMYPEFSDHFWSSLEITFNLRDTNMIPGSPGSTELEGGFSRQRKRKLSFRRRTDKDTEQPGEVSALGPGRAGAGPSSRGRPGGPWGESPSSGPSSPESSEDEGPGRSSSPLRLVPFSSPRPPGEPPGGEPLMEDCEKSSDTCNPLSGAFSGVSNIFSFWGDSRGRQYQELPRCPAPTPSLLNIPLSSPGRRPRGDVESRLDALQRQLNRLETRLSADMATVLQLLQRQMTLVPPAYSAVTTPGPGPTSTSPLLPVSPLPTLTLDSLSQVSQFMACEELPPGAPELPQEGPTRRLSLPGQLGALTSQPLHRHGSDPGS
UniProt P08659, whole entry, looked up: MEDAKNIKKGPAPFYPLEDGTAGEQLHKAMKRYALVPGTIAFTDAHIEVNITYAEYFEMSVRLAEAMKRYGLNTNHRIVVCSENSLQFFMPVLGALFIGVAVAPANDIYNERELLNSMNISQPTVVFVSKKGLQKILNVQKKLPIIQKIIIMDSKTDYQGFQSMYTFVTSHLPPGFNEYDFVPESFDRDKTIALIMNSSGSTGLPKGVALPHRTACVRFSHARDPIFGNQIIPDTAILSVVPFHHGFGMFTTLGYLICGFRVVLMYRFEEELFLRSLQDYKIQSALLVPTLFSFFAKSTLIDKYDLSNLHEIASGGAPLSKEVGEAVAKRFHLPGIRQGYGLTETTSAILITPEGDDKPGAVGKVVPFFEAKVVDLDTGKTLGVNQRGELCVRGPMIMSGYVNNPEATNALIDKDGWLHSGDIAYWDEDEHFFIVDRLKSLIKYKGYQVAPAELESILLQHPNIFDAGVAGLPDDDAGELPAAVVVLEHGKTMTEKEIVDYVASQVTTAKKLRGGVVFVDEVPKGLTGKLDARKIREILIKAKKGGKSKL
UniProt O15297: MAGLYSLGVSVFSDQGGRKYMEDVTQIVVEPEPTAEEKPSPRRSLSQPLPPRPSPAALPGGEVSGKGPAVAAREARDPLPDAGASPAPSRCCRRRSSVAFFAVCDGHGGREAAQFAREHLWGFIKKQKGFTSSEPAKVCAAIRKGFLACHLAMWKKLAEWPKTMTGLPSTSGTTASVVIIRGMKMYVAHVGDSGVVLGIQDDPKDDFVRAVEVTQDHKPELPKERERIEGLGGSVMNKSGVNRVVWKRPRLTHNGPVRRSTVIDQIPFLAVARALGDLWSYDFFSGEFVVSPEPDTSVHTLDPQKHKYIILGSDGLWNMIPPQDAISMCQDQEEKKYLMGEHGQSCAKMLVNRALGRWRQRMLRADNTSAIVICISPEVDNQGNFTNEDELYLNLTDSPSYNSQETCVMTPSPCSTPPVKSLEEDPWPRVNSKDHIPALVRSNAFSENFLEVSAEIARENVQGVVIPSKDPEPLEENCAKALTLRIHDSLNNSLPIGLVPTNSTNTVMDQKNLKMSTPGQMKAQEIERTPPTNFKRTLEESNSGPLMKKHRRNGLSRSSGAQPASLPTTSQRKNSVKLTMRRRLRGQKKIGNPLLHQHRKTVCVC

Experiments:
[1] = target: Ubiquitin carboxyl-terminal hydrolase 1 (Homo sapiens) (UniProt O94782); experiment: Inhibitors of USP1/UAF1: Pilot qHTS (AID 504865); conditions: purified USP1/UAF1, Ub-rhodamine cleavage fluorescence; at 114 µM (top of the series);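 further: rhodamine fluorescence freed from ubiquitin-rhodamine substrate followed over time; top concentration of the series differs between compounds; on the % scale 0 is the no-effect control and ±100 the full control effect; nearly all actives have a fitted effect of over 35% in size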
[2] = target: Voltage-gated inwardly rectifying potassium channel KCNH2 (Homo sapiens) (UniProt Q12809); experiment: qHTS Assay for Small Molecule Inhibitors of the Human hERG Channel Activity (AID 588834); conditions: U2OS BacMam hERG, FluxOR thallium flux fluorescence; at 46.1 µM (top of the series) unless noted;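 further: U2OS cells transduced with hERG by BacMam; top concentration of the series differs between compounds; on the % scale 0 is the no-effect control and ±100 the full control effect; lower thallium flux fluorescence means stronger hERG block; nearly all actives have a fitted effect of over 50% in size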
[3] = target: Luciferin 4-monooxygenase (Photinus pyralis) (UniProt P08659); experiment: Biochemical firefly luciferase enzyme assay for NPC (AID 624030);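 further: purified P. pyralis luciferase at 10 nM with luciferin and ATP substrate; 0% = DMSO and -100% = full luciferase inhibition by PTC124 control; nearly all actives have a fitted effect of over 70% in size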; conditions: purified P. pyralis luciferase, luminescence, 5 min; at 58.6 µM (top of the series) unless noted
Summary of the method: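 Direct inhibition of firefly luciferase enzyme (10 nM final, 50 mM Tris Acetate) assessed by luminescence within 5 minutes. Percent activity scaled between DMSO and PTC124 positive control, with concentration-effect curves classified by fit quality and response.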

[4] = S16 Schwann cell viability assay (CellTiter-Glo assay) (AID 624031); conditions: S16 rat Schwann cells viability, 24 h; at 57.5 µM (top of the series);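 further: native untransfected S16 rat Schwann cells; cellular ATP luminescence as a viability measure; plate controls were DMSO-treated cells for no effect and cell-free wells for full effect; nearly all actives have a fitted effect of over 70% in size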
Summary of the method: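 Parental S16 cells, 24 h compound, 37 °C. ATP-luminescence viability; DMSO = 0% activity, empty wells as reference; curves classified by fit quality and efficacy.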

[5] = S16 Schwann cell PMP22 intronic element firefly luciferase assay (AID 624032); conditions: S16 rat Schwann cells, PMP22 element FLuc, 24 h; at 57.5 µM (top of the series);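 further: plate controls were DMSO for no effect and PTC124 positive control mean for full effect; nearly all actives have a fitted effect of over 30% in size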
[6] = S16 Schwann cell PMP22 intronic element beta-lactamase assay (AID 624044; calls by dose curve;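 further: 0% = DMSO and -100% = potassium clavulanate positive control; nearly all actives have a fitted effect of over 15% in size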); conditions: S16 rat Schwann cells, PMP22 element beta-lactamase FRET, 24 h; at 38.3 µM (top of the series)
[7] = qHTS assay to identify small molecule inhibitors of chordoma cells - UCH-1 (AID 1259355); conditions: UCH-1 chordoma viability, CellTiter-Glo, 48 h, combination, with auranofin plus four topoisomerase inhibitors; at 46.1 µM (top of the series); further: on the % scale 0 is the no-effect control and ±100 the full control effect; nearly all actives have a fitted effect of over 55% in size
Summary of the method: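 800 cells/well, overnight attach; compounds pinned at 15 concs, then auranofin/camptothecin/doxorubicin/rubitecan/topotecan combo added; 48hr 37 C, 5% CO2; CellTiter-Glo, 30min RT, luminescence.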

[8] = qHTS assay to identify small molecule inhibitors of chordoma cells - UCH-2 (AID 1259356); conditions: UCH-2 chordoma viability, CellTiter-Glo ATP luminescence, 48 h; at 46.1 µM (top of the series); further: on the % scale 0 is the no-effect control and ±100 the full control effect
[9] = P-glycoprotein substrates identified in KB-8-5-11 adenocarcinoma cell line, qHTS therapeutic library screen (AID 1346987); conditions: KB-8-5-11 (P-gp overexpressing) viability, CellTiter-Glo, 72 h; at 44.5 µM (top of the series) unless noted; further: on the % scale 0 is the no-effect control and ±100 the full control effect; nearly all actives have a fitted effect of over 65% in size
[10] = qHTS of pediatric cancer cell lines to identify multiple opportunities for drug repurposing: Primary screen for TC32 cells (AID 1347089); conditions: TC32 Ewing sarcoma viability, CellTiter-Glo luminescence, 48 h; at 45.8 µM (top of the series) unless noted; further: on the % scale 0 is the no-effect control and ±100 the full control effect; nearly all actives have a fitted effect of over 60% in size
[11] = qHTS of pediatric cancer cell lines to identify multiple opportunities for drug repurposing: Primary screen for DAOY cells (AID 1347090);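 further: plate controls were DMSO for no effect and bortezomib for full effect; nearly all actives have a fitted effect of over 55% in size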
[12] = qHTS of pediatric cancer cell lines to identify multiple opportunities for drug repurposing: Primary screen for SJ-GBM2 cells (AID 1347091); conditions: SJ-GBM2 viability, CellTiter-Glo luminescence, 48 h; at 46 µM (top of the series) unless noted;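 further: plate controls were DMSO neutral control for no effect and bortezomib for full effect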
[13] = qHTS of pediatric cancer cell lines to identify multiple opportunities for drug repurposing: Primary screen for A673 cells (AID 1347092); conditions: A673 Ewing sarcoma viability, CellTiter-Glo ATP luminescence, 48 h; at 46 µM (top of the series) unless noted; further: on the % scale 0 is the no-effect control and ±100 the full control effect; nearly all actives have a fitted effect of over 45% in size
[14] = qHTS of pediatric cancer cell lines to identify multiple opportunities for drug repurposing: Primary screen for SK-N-MC cells (AID 1347093); conditions: SK-N-MC viability, CellTiter-Glo luminescence, 48 h; at 46 µM (top of the series) unless noted;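 further: plate controls were DMSO neutral control for no effect and bortezomib for full effect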
[15] = qHTS of pediatric cancer cell lines to identify multiple opportunities for drug repurposing: Primary screen for BT-37 cells (AID 1347094); conditions: BT-37 viability, CellTiter-Glo luminescence, 48 h; at 57.3 µM (top of the series) unless noted;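 further: plate controls were DMSO for no effect and bortezomib for full effect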
[16] = qHTS of pediatric cancer cell lines to identify multiple opportunities for drug repurposing: Primary screen for NB-EBc1 cells (AID 1347095); conditions: NB-EBc1 neuroblastoma viability, CellTiter-Glo luminescence, 48 h; at 46 µM (top of the series) unless noted;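 further: plate controls were DMSO neutral control for no effect and bortezomib for full effect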
[17] = qHTS of pediatric cancer cell lines to identify multiple opportunities for drug repurposing: Primary screen for U-2 OS cells (AID 1347096); conditions: U-2 OS viability, CellTiter-Glo luminescence, 48 h; at 46 µM (top of the series) unless noted;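 further: plate controls were DMSO wells for no effect and bortezomib positive control wells for full effect; nearly all actives have a fitted effect of over 50% in size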
[18] = qHTS of pediatric cancer cell lines to identify multiple opportunities for drug repurposing: Primary screen for Saos-2 cells (AID 1347097); conditions: Saos-2 viability, CellTiter-Glo ATP luminescence, 48 h; at 46 µM (top of the series) unless noted; further: on the % scale 0 is the no-effect control and ±100 the full control effect; nearly all actives have a fitted effect of over 40% in size
[19] = qHTS of pediatric cancer cell lines to identify multiple opportunities for drug repurposing: Primary screen for SK-N-SH cells (AID 1347098); conditions: SK-N-SH viability, CellTiter-Glo luminescence, 48 h; at 57 µM (top of the series) unless noted;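 further: DMSO served as neutral control and bortezomib at 2.3 µM as positive control; on the % scale 0 is the no-effect control and ±100 the full control effect; nearly all actives have a fitted effect of over 65% in size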
[20] = qHTS of pediatric cancer cell lines to identify multiple opportunities for drug repurposing: Primary screen for NB1643 cells (AID 1347099); conditions: NB1643 neuroblastoma viability, CellTiter-Glo luminescence, 48 h; at 46 µM (top of the series) unless noted;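 further: plate controls were DMSO neutral control for no effect and bortezomib positive control for full effect; nearly all actives have a fitted effect of over 50% in size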
[21] = qHTS of pediatric cancer cell lines to identify multiple opportunities for drug repurposing: Primary screen for BT-12 cells (AID 1347101);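 further: plate controls were DMSO for no effect and bortezomib positive control for full effect; nearly all actives have a fitted effect of over 25% in size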
[22] = qHTS of pediatric cancer cell lines to identify multiple opportunities for drug repurposing: Primary screen for Rh18 cells (AID 1347102); conditions: Rh18 rhabdomyosarcoma viability, CellTiter-Glo luminescence, 48 h; at 46 µM (top of the series) unless noted; further: on the % scale 0 is the no-effect control and ±100 the full control effect; nearly all actives have a fitted effect of over 65% in size
[23] = qHTS of pediatric cancer cell lines to identify multiple opportunities for drug repurposing: Primary screen for OHS-50 cells (AID 1347103);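 further: plate controls were DMSO neutral control for no effect and bortezomib positive control for full effect; nearly all actives have a fitted effect of over 40% in size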
[24] = qHTS of pediatric cancer cell lines to identify multiple opportunities for drug repurposing: Primary screen for RD cells (AID 1347104); conditions: RD rhabdomyosarcoma viability, CellTiter-Glo luminescence, 48 h; at 46 µM (top of the series) unless noted;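 further: plate controls were DMSO for no effect and bortezomib for full effect; nearly all actives have a fitted effect of over 55% in size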
[25] = qHTS of pediatric cancer cell lines to identify multiple opportunities for drug repurposing: Primary screen for MG 63 (6-TG R) cells (AID 1347105); conditions: MG 63 (6-TG R) viability, CellTiter-Glo, 48 h; at 46 µM (top of the series) unless noted; further: on the % scale 0 is the no-effect control and ±100 the full control effect; nearly all actives have a fitted effect of over 50% in size
[26] = qHTS of pediatric cancer cell lines to identify multiple opportunities for drug repurposing: Primary screen for control Hh wild type fibroblast cells (AID 1347106); conditions: Hh wild-type fibroblast viability, CellTiter-Glo luminescence, 48 h; at 46 µM (top of the series) unless noted
[27] = qHTS of pediatric cancer cell lines to identify multiple opportunities for drug repurposing: Primary screen for Rh30 cells (AID 1347107); conditions: Rh30 rhabdomyosarcoma viability, CellTiter-Glo luminescence, 48 h; at 46 µM (top of the series) unless noted
[28] = qHTS of pediatric cancer cell lines to identify multiple opportunities for drug repurposing: Primary screen for Rh41 cells (AID 1347108); conditions: Rh41 rhabdomyosarcoma viability, CellTiter-Glo luminescence, 48 h; at 46 µM (top of the series) unless noted
[29] = qHTS to identify inhibitors of the type 1 interferon - major histocompatibility complex class I in skeletal muscle: primary screen against the NCATS Pharmaceutical Collection (AID 1347407); conditions: human skeletal muscle cells, IFN-b-induced MHC-I HiBiT luminescence, 24 h; at 45.9 µM (top of the series) unless noted
Summary of the method: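 Cells were seeded with 4 ng/ml IFN-beta, incubated 1 h, then dosed with compounds over eight 1:5 steps up to 46 uM final. After 24 h at 37 C, HiBiT lytic reagent was added and luminescence read after 10 min lysis in the dark.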

[30] = target: Protein phosphatase 1D (Homo sapiens) (UniProt O15297); experiment: RapidFire Mass Spectrometry qHTS Assay for Modulators of WT P53-Induced Phosphatase 1 (WIP1) (AID 1347424); conditions: WIP1 dephosphorylation of phosphopeptide, RapidFire MS; at 63 µM (top of the series) unless noted
Summary of the method: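 RapidFire mass spectrometry measured dephosphorylated peptide after 5 min room-temperature reaction of 2 uM VEPPL-pS-QETFS with 10 nM WIP1 (50 mM Tris-HCl pH 7.5, 30 mM MgCl2, 0.1 mM EGTA, BSA), following 1 hr compound preincubation; 1 uM isotope-labelled product standard.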

CN(C(=O)Cc1ccccc1)[C@H]1CC[C@@]2(CCCO2)C[C@@H]1N1CCCC1
inactive: activity change, negative = inhibition [1] -7.38% | activity change, negative = inhibition [2] -8.87% | activity change, negative = inhibition [3] -0.447% | activity change, negative = cytotoxicity [4] -9.73% | activity change, negative = inhibition [5] -29.9% | ratio activity, negative = inhibition [6] 2.13% | activity, negative = inhibition [7] -0.118% | activity change, negative = inhibition [8] 12.1% | activity change, negative = cytotoxicity [9] -9.94% | activity change, negative = cytotoxic [10] 1.15% | Potency [11] | activity change, negative = cytotoxic [12] 16.4% | activity change, negative = cytotoxic [13] -23.2% | activity change, negative = cytotoxic [14] -3.71% | activity change, negative = cytotoxic [15] -2.62% | activity change, negative = cytotoxic [16] -0.669% | activity change, negative = cytotoxic [17] 2.44% | activity change, negative = cytotoxic [18] 4.9% | activity change, negative = cytotoxic [19] -21.3% | activity change, negative = cytotoxic [20] 16.1% | Potency [21] | activity change, negative = cytotoxic [22] -10% | Potency [23] | activity change, negative = cytotoxic [24] -1.88% | activity change, negative = cytotoxic [25] -7.81% | activity change, negative = cytotoxic [26] 12.8% | activity change, negative = cytotoxic [27] 10.7% | activity change, negative = cytotoxic [28] 13% | activity change, negative = inhibition [29] -10.3% | activity change, negative = inhibition [30] 3.94%
